Target: myeloperoxidase (Homo sapiens, UniProt P05164)
Experiment: NADH2-NDGA-myeloperoxidase spectrophotometric assay of sputum / oral fluid-cell harvest supernatant extracts
Assay type: biochemical
Settings: read-out: concentration that produces fifty (50) percent inhibition of myeloperoxidase

Amino acid sequences for entries named in this document (tags omitted). Residues count along the entry.
UniProt P05164, 49-745 limits assumed: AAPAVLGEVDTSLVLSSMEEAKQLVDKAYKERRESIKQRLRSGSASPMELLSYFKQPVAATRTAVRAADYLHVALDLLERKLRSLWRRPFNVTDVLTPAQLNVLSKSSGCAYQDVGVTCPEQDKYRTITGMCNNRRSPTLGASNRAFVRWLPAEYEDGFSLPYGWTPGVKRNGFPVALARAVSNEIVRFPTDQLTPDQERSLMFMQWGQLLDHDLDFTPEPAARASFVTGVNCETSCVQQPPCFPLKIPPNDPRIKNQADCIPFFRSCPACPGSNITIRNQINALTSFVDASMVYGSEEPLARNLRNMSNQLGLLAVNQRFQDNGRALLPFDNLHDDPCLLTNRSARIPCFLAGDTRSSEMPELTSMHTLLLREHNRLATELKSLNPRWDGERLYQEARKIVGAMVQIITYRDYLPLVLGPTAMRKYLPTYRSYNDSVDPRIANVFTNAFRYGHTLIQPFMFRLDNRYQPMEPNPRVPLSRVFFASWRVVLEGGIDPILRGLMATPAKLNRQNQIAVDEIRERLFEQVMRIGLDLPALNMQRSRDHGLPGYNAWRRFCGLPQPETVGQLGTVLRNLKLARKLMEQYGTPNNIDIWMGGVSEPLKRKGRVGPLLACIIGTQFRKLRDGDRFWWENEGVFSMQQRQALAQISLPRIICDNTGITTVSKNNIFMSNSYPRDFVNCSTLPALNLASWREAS

How did the IC50 turn out when `[N-]=[N+]=[N-]` was run?
The IC50 was 1600 µM.

— patent US6796312B2, “Process and apparatus for the removal of toxic components of tobacco smoke and the standardization of the health hazards related to those components” (priority 2001, dated 2004)
